Patent publication US20030082803A1, “Cell cycle control” (priority 1999, published 2003)

Protein sequences, listed by entry. Tags and fused reporters are not part of them.
UniProt P11440, whole entry: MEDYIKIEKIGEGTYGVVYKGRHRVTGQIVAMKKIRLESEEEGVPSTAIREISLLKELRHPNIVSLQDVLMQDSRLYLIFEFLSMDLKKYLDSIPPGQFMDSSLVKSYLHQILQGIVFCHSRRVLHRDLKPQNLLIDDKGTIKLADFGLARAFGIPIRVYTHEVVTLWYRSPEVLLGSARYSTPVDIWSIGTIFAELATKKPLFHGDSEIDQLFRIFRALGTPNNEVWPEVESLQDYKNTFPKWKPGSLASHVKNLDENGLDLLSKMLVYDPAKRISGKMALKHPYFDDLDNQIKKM
UniProt P24860, whole entry partner: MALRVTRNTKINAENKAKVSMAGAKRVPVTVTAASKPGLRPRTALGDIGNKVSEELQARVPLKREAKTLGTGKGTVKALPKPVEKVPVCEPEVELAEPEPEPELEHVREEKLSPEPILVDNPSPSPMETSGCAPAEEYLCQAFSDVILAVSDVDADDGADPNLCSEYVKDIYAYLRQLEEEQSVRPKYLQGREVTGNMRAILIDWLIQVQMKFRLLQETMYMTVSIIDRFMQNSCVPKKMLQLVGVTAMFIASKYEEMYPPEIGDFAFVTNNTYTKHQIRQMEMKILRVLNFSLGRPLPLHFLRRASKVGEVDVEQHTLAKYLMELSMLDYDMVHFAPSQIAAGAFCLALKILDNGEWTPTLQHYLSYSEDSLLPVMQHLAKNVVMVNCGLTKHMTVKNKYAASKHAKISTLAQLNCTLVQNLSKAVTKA

Columns and labels:
Cdk2-cyclin E = Cdk2-cyclin E (Homo sapiens, UniProt P24941); assay: Protein kinase assay for the characterization of Ro09-3033 (recombinant Cdk-cyclin complexes)
Experimental: Protein kinase assays for the characterization of Ro09-3033 were performed as described in (6). Recombinant human Cdc2-cyclin B, Cdk2-cyclin E and Cdk4-cyclin D, expressed from baculovirus expression constructs in insect cells, were kind gifts from Dr Wade Harper (Baylor College of Medicine, Houston, Tex.).

Cdk2 [1] = biological target: Cdk2 (Mus musculus, UniProt P97377); assay: Histone H1 kinase assay of Cdk2 immunoprecipitated from mES whole cell lysates; conditions: 2 μM, mES cells, standard assay conditions
Experimental: (§1) Cdk2 activity levels determine the rate of mES cell division but not cell cycle structure. (A) mES cells were grown for up to 8 passages in the presence (+) or absence (−) of Ro09-3033 (2 μM). Cdk2, cyclin E and cyclin B-associated H1 kinase activities were assayed as described previously after immunoprecipitation from whole cell lysates (100 μg protein). Input loading control was determined by probing immunoblots (15 μg lysate protein) with α-Cdk2 and α-Oct4 polyclonal antibodies. Quantitation of H1 kinase activities are shown in the lower panel as the average of two independent experiments. (B) Northern blot analysis of Oct4, Rex-1 and GAPDH transcripts from mES cells grown with (+) or without (−) inhibitor (2 μM) for the number of passages indicated. RNA was resolved by agarose gel electrophoresis, blotted and hybridized with [^32P]-labelled Oct4, Rex-1 and GAPDH probes (15 μg total RNA per lane). […] (C) After 8 passages in the presence (+) or absence (−) of 2 μM Ro09-3033, mES and mEPL cells were fixed and stained with PI and analysed by flow cytometry. […] Generation times of mEPL cells were not determined in this experiment.
(§2) Protein A Sepharose (PAS) beads (Pharmacia) were stored in BSA (1 mg/ml), 0.05% sodium azide at 4° C. as a 50% slurry. […] [^32P]-labelled histone H1 was quantitated from dried gels using a phosphorimager (Molecular Dynamics).

cyclin E kinase activity = cyclin E kinase activity (Mus musculus, UniProt P97377); assay: Histone H1 kinase assay of cyclin E immunoprecipitated from mES whole cell lysates; conditions: 2 μM, mES cells, standard assay conditions
Experimental: as §1, §2

Cdc2-cyclin B = Cdc2-cyclin B (Mus musculus, UniProt P11440); assay: Histone H1 kinase assay of cyclin B immunoprecipitated from mES lysates; conditions: 2 μM and up to 20 μM
Experimental: as §1, §2

mES cells [2] = assay: Northern blot analysis of mES cell marker genes Rex-1 and Oct4; conditions: inhibitor treatment up to 8 passages
Experimental: as §1
Cells were scraped from petri dishes following incubation for 5 minutes in TEN buffer at room temperature. […] Membranes were scanned and hybridisation signals quantitated by scanning on a phosphorimager.

mES cells [3] = assay: Cell cycle arrest and cell cycle structure by flow cytometry of PI-stained mES cells
Experimental: as §1
In preparation for flow cytometry, cells were resuspended in 300 μl of PBS supplemented with 1% FCS. […] Cells were stained by the addition of 2.5 mg/ml propidium iodide (Sigma) and 0.5 mg/ml RNAase A and analysed on a Beckman-Coulter flow cytometer with WinMDi software.

Saos2 cells = assay: Cell cycle arrest by flow cytometry of PI-stained Saos2 cells
Experimental: Ro09-3033 imposes a cell cycle arrest in Saos2 cells. (A) Structure of the Cdk2 inhibitor Ro09-3033. (B) Saos2 cells were grown in the presence of DMSO (0.5%), 0.1% FCS for 48 hours or 10 μM Ro09-3033 for 48 hours. Flow cytometry profiles of PI-stained cells are shown together with the percentage of cells in G0/G1, S or G2/M.
In preparation for flow cytometry, cells were resuspended in 300 μl of PBS supplemented with 1% FCS. Cells were then fixed by the drop-wise addition of 900 μl of ice cold 95% ethanol while vortexing and left on ice for 10 minutes. Cells were collected by centrifugation (3,000×g, 5 mins), washed twice in 700 μl of cold PBS before being finally resuspended in PBS. Cells were stained by the addition of 2.5 mg/ml propidium iodide (Sigma) and 0.5 mg/ml RNAase A and analysed on a Beckman-Coulter flow cytometer with WinMDi software.

mES cells [4] = assay: Generation time, BrdU incorporation and viability of mES cells grown with inhibitor
Experimental: Cdk2 activity levels determine the rate of mES cell division but not cell cycle structure. (A) mES cells were grown for up to 8 passages in the presence (+) or absence (−) of Ro09-3033 (2 μM). Cdk2, cyclin E and cyclin B-associated H1 kinase activities were assayed as described previously after immunoprecipitation from whole cell lysates (100 μg protein). Input loading control was determined by probing immunoblots (15 μg lysate protein) with α-Cdk2 and α-Oct4 polyclonal antibodies. Quantitation of H1 kinase activities are shown in the lower panel as the average of two independent experiments. (B) Northern blot analysis of Oct4, Rex-1 and GAPDH transcripts from mES cells grown with (+) or without (−) inhibitor (2 μM) for the number of passages indicated. RNA was resolved by agarose gel electrophoresis, blotted and hybridized with [^32P]-labelled Oct4, Rex-1 and GAPDH probes (15 μg total RNA per lane). Lanes designated +/− were RNA samples from mES cells grown for either 2 or 12 passages with inhibitor followed by 4 passages in the absence of inhibitor. (C) After 8 passages in the presence (+) or absence (−) of 2 μM Ro09-3033, mES and mEPL cells were fixed and stained with PI and analysed by flow cytometry. The mean generation time (two independent experiments) for mES cells over this period is indicated in addition to the % of cells in G1, S and G2/M phases. Generation times of mEPL cells were not determined in this experiment.
D3 mES cells (1) were cultured in the absence of feeders on tissue culture grade plastic-ware pre-coated with 0.1% gelatin-phosphate buffered saline (PBS), as described previously (2). ES cell culture medium consisted of Dulbecco's Modified Eagle Medium (DMEM, Gibco BRL) supplemented with 10% foetal calf serum (FCS, Commonwealth Serum Laboratories), 1 mM L-glutamine, 0.1 mM 2-mercaptoethanol, 100 U/ml penicillin, 100 U/ml streptomycin and 1000 U/ml recombinant human LIF (ESGRO) at 37° C. under 10% CO2. mEPL cells were formed and maintained by culturing as described previously (2) in ES-media containing 50% conditioned media (MedII) supplemented with 1 mM L-glutamine, 0.1 mM 2-mercaptoethanol, 100 U/ml penicillin, 100 U/ml streptomycin and 1,000 U/ml recombinant LIF at a density of 2×10^4 cells/cm^2. mEPL cells were passaged every 48 hours. MedII conditioned media was prepared from HepG2 cells (ATCC HB-8065) grown for 5 days in DMEM supplemented with 10% FCS, 40 mg/ml gentamycin and 1 mM L-glutamine, after being seeded at 5×10^4 cells/ml. Cell supernatants were collected, filter sterilized then stored at 4° C. for up to 2 weeks. […]

Cdk2 [5] = biological target: Cdk2 (Homo sapiens, UniProt P24941); conditions: reference (6); cited from earlier work

- Selectivity for Cdk2 (Cdk2-cyclin E): highly selective for Cdk2
- IC50 (Cdk2-cyclin E; read-out: IC50 for Cdk2, Table 1 is cited but not given): 20 nM
- Inhibition of immunoprecipitated Cdk2 kinase activity (Cdk2 [1]): 50-60%
- Inhibition of immunoprecipitated cyclin E kinase activity (cyclin E kinase activity): 50-60%
- Effect on activity of other Cdks immunoprecipitated from mES lysates, such as Cdc2-cyclin B (Cdc2-cyclin B): no reproducible effect
Compound: CO[C@@]1(C)[C@H](O)C(=O)C(C)=C2OC(=O)c3c(C)cc(O)c(C)c3O[C@@H]21
- Effect on expression pattern of mES cell marker genes Rex-1 and Oct4 (mES cells [2]): no effect
- Effect on cell cycle structure (mES cells [3]; inhibitor-treated mES cells, 2 μM): no major effect
- Concentration required for uniform cell cycle arrest in mES cells relative to most other cell types tested (mES cells [3]; versus Saos2 cells, NIH 3T3 fibroblasts and MEFs): > 5 fold
- Cell cycle arrest in Saos2 cells (Saos2 cells; 10 μM for 48 hours): imposes a cell cycle arrest
- Concentration required to produce a uniform cell cycle arrest (Saos2 cells; Saos2 cells): 20 µM
- Cell cycle arrest (Saos2 cells; low micromolar range, FIG. 3B): enforces a cell cycle arrest
- Percentage of cells that incorporated BrdU (mES cells [4]; 24 hour labelling period, treated mES cells, untreated 98%): 95%
- Increase in cell cycle time (mES cells [4]; inhibitor-treated versus untreated mES cells): 66%
- Generation time of mES cells (mES cells [4]; inhibitor-treated, 2 μM, 8 passages, untreated 11 hours): 18.3 h
- Effect on cell viability (mES cells [4]; mES cells, PI exclusion and absence of sub-2n DNA content): no effect on cell viability
- Binding to the ATP binding site of Cdk2 (Cdk2 [5]): binds irreversibly
